For one compound, IC50 results are on record in ChEMBL document CHEMBL5608239, “Structure, Function, and Activity of Small Molecule and Peptide Inhibitors of Protein Arginine Methyltransferase 1” (J Med Chem, 2024).

Amino acid sequences for entries named in this document (tags omitted).
UniProt Q99873, whole entry: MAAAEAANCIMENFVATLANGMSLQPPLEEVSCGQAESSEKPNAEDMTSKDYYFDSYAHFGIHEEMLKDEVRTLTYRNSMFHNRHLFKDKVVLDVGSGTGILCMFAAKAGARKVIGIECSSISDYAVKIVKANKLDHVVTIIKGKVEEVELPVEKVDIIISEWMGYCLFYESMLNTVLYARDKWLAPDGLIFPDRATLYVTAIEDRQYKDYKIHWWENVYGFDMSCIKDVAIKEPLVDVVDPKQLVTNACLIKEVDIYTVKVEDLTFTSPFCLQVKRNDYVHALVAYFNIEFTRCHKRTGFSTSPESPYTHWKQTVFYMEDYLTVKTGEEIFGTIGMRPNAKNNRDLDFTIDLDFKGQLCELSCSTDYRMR

pIC50: −log10 of the molar value.

For assay [1], the target named is T1, Protein arginine N-methyltransferase 1 (Homo sapiens, UniProt Q99873). The assay can be described thus: Inhibition of recombinant C-terminal GST-tagged PRMT1 (unknown origin).
Assay [2] has as its target T1, Protein arginine N-methyltransferase 1. The assay can be described thus: Inhibition of 6His-tagged human recombinant PRMT1 using Histone H4 as substrate.

For `Nc1ncnc2c1ncn2[C@@H]1O[C@H](C[C@@H](N)CC[C@H](N)C(=O)O)[C@@H](O)[C@H]1O` [SINEFUNGIN], the negative logarithm of the IC50 (pIC50) in assay [1] is 5.79; in assay [2] it was 5.43.
